Measured values: patent US7250397B2, “Antiarrhythmic peptides” (Zealand Pharma A/S, priority 2000, dated 2007)

Columns and labels:
[1] = In vitro stability in plasma and serum, summary statement; type: in vitro ADME
Procedure: (§1) The stability of peptides is analysed in different plasma and serum types. The peptides are incubated at 37° C. in plasma and samples taken at approx. 9 regular intervals between t=0 and t=156 min are analysed by HPLC.
(§2) This is done by subsequent injections of the drug, plasma, and a co-injection with the drug and the plasma, followed by optimisation of the LC method parameters until a satisfactory separation is obtained. Three parallel experiments are performed for each plasma type:100 μl of peptide is mixed with 900 μl plasma at t=0 and incubated at 37° C. (drug-plasma mixture conc. 0.1 mg/ml). Samples of 100 μl of the drug-plasma mixture are removed at appropriate intervals and the degradation stopped by precipitation of the sample with 10 μl MeCN:TFA 50:50 v/v. A control plasma sample without the drug treated in the same manner is also taken. The plasma samples are centrifuged for 15 min. at 12,000 rpm (Eppendorf centrifuge) at ambient temperature. The resulting supernatant solution is transferred to 300 μl HP autosamler vials and analyzed by HPLC. […]
(§3) The samples are analyzed in the following order: blank, the peptide at 0.1 mg/mL, the plasma without the peptide, the three parallel samples for t=0, the three parallel samples for t=5 min. the three parallel samples for t=10 min. etc. […]

[2] = In vitro stability test in rabbit serum; type: in vitro ADME; settings: 37° C., 0.1 mg/ml, mean n=3
Procedure: as §1, §2, §3

[3] = In vitro stability test in rabbit plasma (heparin); type: in vitro ADME; settings: 37° C., 0.1 mg/ml, mean n=3
Procedure: as §1
This is done by subsequent injections of the drug, plasma, and a co-injection with the drug and the plasma, followed by optimisation of the LC method parameters until a satisfactory separation is obtained. Three parallel experiments are performed for each plasma type:100 μl of peptide is mixed with 900 μl plasma at t=0 and incubated at 37° C. (drug-plasma mixture conc. 0.1 mg/ml). Samples of 100 μl of the drug-plasma mixture are removed at appropriate intervals and the degradation stopped by precipitation of the sample with 10 μl MeCN:TFA 50:50 v/v. A control plasma sample without the drug treated in the same manner is also taken. The plasma samples are centrifuged for 15 min. at 12,000 rpm (Eppendorf centrifuge) at ambient temperature. The resulting supernatant solution is transferred to 300 μl HP autosamler vials and analyzed by HPLC. HPLC analysis are performed as follows: • Compound CE1 • Column: Vydac 218MS52, 250×2.1 mm, flow: 0.200 mL/min. Temp.: 40° C. • Solvent: MeCN/MQW/TFA (0.1%). Run time: 25 min. • Inj.vol.:15 μL. Detection: DAD1 A, 214.5 nm • Compound CE2 • Column: Kromasil KR100-10C8, 250×4.6 mm, flow: 1 mL/min. Temp.: 40° C. • Solvent: MeCN/MQW/TFA (0.1%). Run time: 20 min. • Inj.vol.:25 μL. Detection: VWD 1 A, 214.5 nm. • Except for rabbit serum: DAD1 A, 214.5 nm • Except for rat plasma: Solvent: MeOH/MQW/TFA (0.1%). Detection:VWD1 A, 210 nm • Compound CE3 • Column: Vydac 218MS52, 250×2.1 mm, flow: 0.200 mL/min. Temp.: 40° C. • Solvent: MeCN/MQW/TFA (0.1%). Run time: 35 min. • Inj.vol.:15 μL. Detection: DAD1 A, 214.5 nm • Compound 3 • Column: Kromasil KR100-10C8, 250×4.6 mm, flow: 1 mL/min. Temp.: 40° C. • Solvent: MeCN/MQW/TFA (0.1%). Run time: 25 min. • Inj.vol.:25 μL. Detection:DAD1 A, 214.5 nm • Compound 2 • Column: Luna 3u C18(2), 150×2 mm, flow: 0.250 mL/min.Temp.: 40° C. • Solvent: MeOH/MQW/HFBA (0.02%). Run time: 25 min. • Inj.vol.: 25 μL. Detection:DAD1 A, 214.5 nm. • Except for human plasma: Column: Luna 5u C18, 150×2 mm, Temp.: 10° C. • Except for human serum: Column: Kromasil KR100-10C8, 250×4.6 mm, • flow: 1 mL/min. Solvent: MeCN/MQW/TFA (0.1%). • Compound 27 • Column: Kromasil KR100-10C8, 250×4.6 mm, flow: 1 mL/min. Temp.: 40° C. • Solvent: MeCN/MQW/TFA (0.1%). Run time: 20 and 25 min. • Inj.vol.: 25 μL. Detection: VWD1 A, 214 nm • Compound 49 • Column: Kromasil KR100-10C8, 250×4.6 mm, flow: 1 mL/min. Temp.: 40° C. • Solvent: MeCN/MQW/TFA (0.1%). Run time: 25 min. • Inj.vol.: 25 μL. Detection: DADI A, 214.5 nm • Compound 48 180 • Column: Kromasil KR100-10C8, 250×4.6 mm, flow: 1 mL/min. Temp.: 40° C. • Solvent: MeCN/MQW/TFA (0.1%). Run time: 25 min. • Inj.vol.: 25 μL. Detection: DAD1 A, 214.5 nm
The samples are analyzed in the following order: blank, the peptide at 0.1 mg/mL, the plasma without the peptide, the three parallel samples for t=0, the three parallel samples for t=5 min. the three parallel samples for t=10 min. etc. And finally the three parallel samples for t=0 are repeated to make sure that there have been no degradation or other failure during the analyses. The sample concentrations (peak height in mAU) are plotted vs. time and fitted to a function describing a mono exponential decay (Excel). The half-life of the peptides in the different types of plasma are presented in Table 1 as mean (n=3)±standard deviation.

[4] = In vitro stability test in rat plasma (heparin); type: in vitro ADME; settings: 37° C., 0.1 mg/ml, mean n=3
Procedure: as §1, §2, §3

[5] = In vitro stability test in human plasma (heparin); type: in vitro ADME; settings: 37° C., 0.1 mg/ml, mean n=3
Procedure: as §1
This is done by subsequent injections of the drug, plasma, and a co-injection with the drug and the plasma, followed by optimisation of the LC method parameters until a satisfactory separation is obtained. Three parallel experiments are performed for each plasma type:100 μl of peptide is mixed with 900 μl plasma at t=0 and incubated at 37° C. (drug-plasma mixture conc. 0.1 mg/ml). Samples of 100 μl of the drug-plasma mixture are removed at appropriate intervals and the degradation stopped by precipitation of the sample with 10 μl MeCN:TFA 50:50 v/v. A control plasma sample without the drug treated in the same manner is also taken. The plasma samples are centrifuged for 15 min. at 12,000 rpm (Eppendorf centrifuge) at ambient temperature. The resulting supernatant solution is transferred to 300 μl HP autosamler vials and analyzed by HPLC. HPLC analysis are performed as follows: • Compound CE1 • Column: Vydac 218MS52, 250×2.1 mm, flow: 0.200 mL/min. Temp.: 40° C. • Solvent: MeCN/MQW/TFA (0.1%). Run time: 25 min. • Inj.vol.:15 μL. Detection: DAD1 A, 214.5 nm • Compound CE2 • Column: Kromasil KR100-10C8, 250×4.6 mm, flow: 1 mL/min. Temp.: 40° C. • Solvent: MeCN/MQW/TFA (0.1%). Run time: 20 min. • Inj.vol.:25 μL. Detection: VWD 1 A, 214.5 nm. • Except for rabbit serum: DAD1 A, 214.5 nm • Except for rat plasma: Solvent: MeOH/MQW/TFA (0.1%). Detection:VWD1 A, 210 nm • Compound CE3 • Column: Vydac 218MS52, 250×2.1 mm, flow: 0.200 mL/min. Temp.: 40° C. • Solvent: MeCN/MQW/TFA (0.1%). Run time: 35 min. • Inj.vol.:15 μL. Detection: DAD1 A, 214.5 nm • Compound 3 • Column: Kromasil KR100-10C8, 250×4.6 mm, flow: 1 mL/min. […]
as §3

[6] = at one year; cited from earlier work
[7] = In vitro stability test in human serum; type: in vitro ADME; settings: 37° C., 0.1 mg/ml, mean n=3
Procedure: as §1, §2, §3

## H-Gly-Ala-Gly-Hyp-Pro-Tyr-NH2 [Compound CE2]
[1]
  half life of degradation: less than 10 minutes
[2]
  T1/2: 2.7 min
[3]
  T1/2: 9.5 min
[4]
  T1/2: 8.2 min

## 3-(4-hydroxyphenyl)propionyl-Pro-Hyp-Gly-Ala-Gly-OH [Compound CE3, reference compound]
[1]
  half life of degradation: less than 12 minutes
[5]
  T1/2: 11.9 min
[3]
  T1/2: 3.7 min

## Amiodarone
[6]
  drug discontinuation due to side effects: up to 20 % of patients

## H-Gly-Pro-Hyp-Gly-Ala-Gly-OH [Compound CE1, reference compound]
[5]
  T1/2: 7.6 min
[3]
  T1/2: 4.4 min

## Cyclo(Tyr-Pro-4Hyp-Gly-Ala-Gly-Asn) [Compound 3]
[7]
  T1/2: >300 min
[3]
  T1/2: >300 min
